Tested on: M2 cells
Assay: Inhibition of osteogenic differentiation of M2 cells by oxidative stress (XXO, MM-LDL): blocking, protection and rescue
Assay type: cell-based, mouse
Settings: pretreatment 48 hours, 250 ng/ml (data not shown)
Experimental: Cell Culture—M2-10B4 mouse marrow stromal cell line (American Type Culture Collection, “ATCC”, Rockville, Md. USA) was derived from bone marrow stromal cells of a (C57BU6J x C3H/HeJ) F1 mouse, and supports human and murine myelopoieses in long-term cultures (as per ATCC). These cells were cultured in RPMI 1640 containing 10% heat-inactivated FBS, and supplemented with 1 mM sodium pyruvate, 100 U/mL penicillin, and 100 U/ml streptomycin (all from Irvine Scientific). The osteogenic medium for these studies consisted of RPMI 1640 with all supplements described above to which 5% FBS, 25 μg/ml ascorbate and 3 mM beta-glycerophosphate were also added. […]
The effect of oxysterols on xanthine/xanthine oxidase inhibition of osteoblast marker expression in marrow stromal cells was tested. […] After 6 days, alkaline phosphatase activity in whole cell extracts was measured for each treatment group.
The effect of oxysterols on minimally oxidized LDL inhibition of osteoblast marker expression in marrow stromal cells was tested. […] After 6 days, alkaline phosphatase activity in whole cell extracts was measured. […] After 8 days, total RNA from duplicate samples was isolated and analyzed for osteocalcin or 18S rRNA expression by Northern blotting. […]

B1: rhBMP2: recombinant human BMP2 from R&D Systems (protein, UniProt P12643 283-396, looked up)
Bone morphogenetic protein 2: QAKHKQRKRLKSSCKRHPLYVDFSDVGWNDWIVAPPGYHAFYCHGECPFPLADHLNSTNHAIVQTLVNSVNSKIPKACCVPTELSAISMLYLDENEKVVLKNYQDMVVEGCGCR
B1 was tested, and the “protection from the adverse effects of oxidative stress on osteogenic differentiation” value was “protected”.

From US20090220562A1, “Osteogenic and anti-adipogenic oxysterols” (priority 2005, published 2009)
